US8329950B2, “Process for preparation of trans 4-(3,4-Dichlorophenyl)-1,2,3,4-tetrahydro-1Napthalenamine” (Sunovion Pharmaceuticals Inc., priority 2005, dated 2012)

The chains behind the UniProt entries cited, without tags or fusion partners.
UniProt P31652, whole entry: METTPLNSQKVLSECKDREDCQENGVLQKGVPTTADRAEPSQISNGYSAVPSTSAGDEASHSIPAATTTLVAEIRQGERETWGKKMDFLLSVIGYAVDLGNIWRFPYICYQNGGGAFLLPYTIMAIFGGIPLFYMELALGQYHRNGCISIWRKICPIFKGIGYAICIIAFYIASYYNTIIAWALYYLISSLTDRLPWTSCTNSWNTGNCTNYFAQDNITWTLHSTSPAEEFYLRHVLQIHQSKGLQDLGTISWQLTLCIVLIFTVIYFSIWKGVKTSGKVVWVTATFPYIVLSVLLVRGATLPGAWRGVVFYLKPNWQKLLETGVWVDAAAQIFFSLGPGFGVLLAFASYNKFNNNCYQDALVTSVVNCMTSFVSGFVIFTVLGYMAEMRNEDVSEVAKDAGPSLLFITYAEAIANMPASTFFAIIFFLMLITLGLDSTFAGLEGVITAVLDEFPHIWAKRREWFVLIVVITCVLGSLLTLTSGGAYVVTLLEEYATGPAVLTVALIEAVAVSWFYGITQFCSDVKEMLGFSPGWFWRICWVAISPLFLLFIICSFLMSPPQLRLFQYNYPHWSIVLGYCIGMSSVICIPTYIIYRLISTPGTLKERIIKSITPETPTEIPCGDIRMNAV

Target: T1, functional uptake of serotonin (5-HT) (Rattus norvegicus, UniProt P31652)
T1 construct: synaptosomes isolated in a 0.32 M sucrose buffer from a male Wistar rat cortex; from tissue; host or cells: male Wistar rat cortex (whole brain) synaptosomes
Experiment: Serotonin functional uptake assay in rat synaptosomes
Format: biochemical

Row | SMILES | pIC50 (Table 6, rat synaptosomes) | inhibition at 10 µM (read-out: inhibition of 5-HT uptake, Table 5, tested initially at 10 μM) [%]
1 | N[C@@H]1CC[C@@H](c2ccc(Cl)c(Cl)c2)c2ccccc21 (relative stereo) [P + Q, trans 4-(3,4-dichlorophenyl)-1,2,3,4-tetrahydro-1-napthalenamine] | 7.39 | 
2 | CNCCCC1c2ccccc2C=Cc2ccccc21 [protriptyline] |  | < 50

pIC50: −log10 of the molar value.
